From PubChem BioAssay AID190 (DTP/NCI, 2004)
Toxic doses and inconclusive results are not listed.

Tested on: AKR/Lw mice, AKR lymphoma ip, median survival T/C
Assay: NCI In Vivo Anticancer Drug Screen. Data for tumor model Lymphoma AKR (Transplanted) (intraperitoneal) in AKR/Lw mice
Settings: endpoint: median survival time; dose: 3.1 mg/kg/injection; schedule: Q01DX015 (ip); vehicle: saline; higher = longer survival
Protocol: The antitumor activity of compounds was measured in mice bearing transplantable tumors. Survival or tumor size were measured and the results are expressed as the measurement made in the treated group (T) divided by the measurement made in the vehicle treated control group (C). The tumor model used in this assay is Lymphoma AKR (Transplanted) (intraperitoneal) in AKR/Lw mice

CC(/C=N/N=C(N)N)=N\N=C(N)N
T/C: 112 % of control
